Results: US10266806B2, “Stem cell-derived hepatocytes in co-culture and uses thereof” (Colorado State University Research Foundation, priority 2014, dated 2019)

Test system: iHeps in iMPCCs
Conditions: human, 6 days

SMILES: CN1CCN(C2=Nc3cc(Cl)ccc3Nc3ccccc32)CC1 [Clozapine]
- TC50 in MPCCs ATP: 57.9 µM
- TC50 in MPCCs Albumin: 27.8 µM
- TC50 in MPCCs Urea: 20.9 µM
